Assay results: PubChem BioAssay AID540253 (National Center for Advancing Translational Sciences (NCATS), 2011)
This is a selection; strong and weak results do not stand in their true shares. Results filed as inconclusive are left out. Activity calls are given as the source filed them. The call rests on the fitted dose curve.

Target: Snurportin-1 (Homo sapiens) + GTP-binding nuclear protein Ran (Homo sapiens) + Importin subunit beta-1 (Homo sapiens) (UniProt O95149+P62826+Q14974)
Assay: qHTS Assay for Inhibitors of RanGTP induced Rango (Ran-regulated importin-beta cargo) - Importin beta complex dissociation; further: % of control where 0% means no effect; nearly all actives have a fitted effect of over 45% in size
Conditions: Biochemical FRET Rango-importin beta; at 46.1 µM (top of the series)

Compound | activity change, negative = inhibition
O=P1(N(CCCl)CCCl)Nc2ccccc2N1 | inactive: 18.2%
O=P1(N(CCCl)CCCl)OCCCN1CCCl (configuration not stated) | inactive: -12%
COc1ccc(N/C(=N/P(=O)(N2CCOCC2)N2CCOCC2)N2CCOCC2)cc1 | inactive: -2.95%
O=[N+]([O-])c1cc(Oc2ccc([N+](=O)[O-])cc2C(F)(F)F)cc([N+](=O)[O-])c1 | inactive: 4.96%
COP1(=S)c2c(C)nn(CCC#N)c2N=C(c2ccc(F)cc2)N1C (configuration not stated) | inactive: -6.19%
Cc1cccc(C)c1OP(C)(=O)Nc1ccc(SC(F)(F)F)cc1 (configuration not stated) | inactive: 17.6%
CP(=O)(Nc1ccc(SC(F)(F)F)cc1)Oc1ccc(Cl)cc1 (configuration not stated) | inactive: 30.7%
CP(=O)(Oc1ccccc1)OC(c1ccccc1)C(F)(F)F (configuration not stated) | inactive: 3.8%
O=C(COc1ccccc1)OC1CN2CCC1CC2 (configuration not stated) | inactive: -3.66%
CP(=O)(NC(=O)Nc1ccccc1)Oc1ccccc1 (configuration not stated) | inactive: 8.84%
CCc1ccc(OP(C)(=O)N2CCN(c3ccc([N+](=O)[O-])cc3)CC2)cc1 (configuration not stated) | inactive: 14.5%
Cc1cc(C)cc(OP(C)(=O)Nc2ccc(SC(F)(F)F)cc2)c1 (configuration not stated) | inactive: 2.71%
O=C(Nc1ccncc1[N+](=O)[O-])c1ccc([N+](=O)[O-])cc1[N+](=O)[O-] | inactive: 1.2%
CCOC(=O)c1ccc(NP(C)(=O)Oc2ccc(OC)cc2)cc1 (configuration not stated) | inactive: -12.6%
CCOC(=O)c1ccc(NC(=O)C(C)(CCl)SC)cc1 (configuration not stated) | inactive: 4.27%
O=[N+]([O-])c1cc([N+](=O)[O-])c(O)c([N+](=O)[O-])c1.c1ccc(Oc2ccncc2)cc1 | inactive: 4.3%
O=C(OC1CN2CCC1CC2)c1cccc([N+](=O)[O-])c1 (configuration not stated) | inactive: 2.01%
CCOP(C)(=S)SCC(=O)NC(C)C(=O)O (configuration not stated) | inactive: -5.93%
CP(=O)(Nc1ccccn1)Oc1ccc(Cl)cc1 (configuration not stated) | inactive: -8.9%
CCC(C)N(CC(C)C)C(=S)SC(NC(C)=O)C(Cl)(Cl)Cl (configuration not stated) | inactive: 0.214%
CC1CCNP(=O)(N(CCCl)CCCl)O1 (configuration not stated) | inactive: 1.02%
CCOC(=O)Nc1ccc([As](=O)(O)O)c(O)c1 | inactive: -10.2%
CCCCOc1ccc(C(=O)NCC2(N3CCCCC3)CCCCC2)cc1OC | inactive: -9.63%

Compound | activity change, negative = inhibition
Cc1cc(SC(NC(=O)c2ccccc2)C(Cl)(Cl)Cl)nc(C(C)C)n1 (configuration not stated) | inactive: -11.9%
CCOC(=O)Nc1cccc([As](=O)(O)O)c1 | inactive: 29.1%
CP(=S)(Nn1cnnc1)Oc1ccccc1 (configuration not stated) | inactive: 9.27%
CP(=O)(Nc1ccccc1Br)Oc1ccccc1 (configuration not stated) | inactive: -4.64%
O=[N+]([O-])c1ccc(Nc2ccc(Oc3ccc([N+](=O)[O-])cc3[N+](=O)[O-])cc2)c([N+](=O)[O-])c1 | inactive: -0.974%
O=P(Nc1ccccn1)(c1cccc2ccccc12)c1cccc2ccccc12 | inactive: -13%
Cc1cc(SC(NC=O)C(Cl)(Cl)Cl)ncn1 (configuration not stated) | inactive: 2.17%
COc1ccccc1OP(C)(=O)Nc1ccccc1 (configuration not stated) | inactive: 3.47%
COc1cc(C2NCCC3(OCCO3)C2(C)C)cc(OC)c1OC.O=[N+]([O-])c1cc([N+](=O)[O-])c(O)c([N+](=O)[O-])c1 (configuration not stated) | inactive: 0.589%
Cc1nn(-c2ccccc2)c2c1P(=O)(N1CCOCC1)N(C)C(c1ccccc1)=N2 (configuration not stated) | inactive: 15.1%
CC1CCC(C(C)C)C(OP(=O)(Nc2ccccn2)c2ccccc2)C1 (configuration not stated) | inactive: -7.36%
Cc1ccc(C(=O)OC2CN3CCC2CC3)cc1 (configuration not stated) | inactive: 20.5%
O=C(/C=C/c1ccccc1)OC1CN2CCC1CC2 (configuration not stated) | inactive: 10.3%
CCCC1OP(=O)(Nc2ccccc2)OCC1CC (configuration not stated) | inactive: 17.4%
CN(C)C1(CNC(=O)c2ccc(S(C)(=O)=O)cc2)CCCCC1 | inactive: -3.63%
CC1=C2N=C(C=C3N=C(C(C)=C4[N-][C@@](C)([C@@H]5N=C1[C@](C)(CCC(=O)NC[C@@H](C)OP(=O)([O-])O[C@H]1[C@@H](O)[C@@H](n6cnc7cc(C)c(C)cc76)O[C@@H]1CO)[C@H]5CC(N)=O)[C@@](C)(CC(N)=O)[C@@H]4CCC(N)=O)[C@@](C)(CC(N)=O)[C@@H]3CCC(N)=O)C(C)(C)[C@@H]2CCC(N)=O.[C-]#N.[Co+3] | inactive: -17.9%
O=[N+]([O-])c1cc([N+](=O)[O-])c(Nc2nnnn2CCO)c([N+](=O)[O-])c1 | inactive: 30.5%
COc1ccccc1OP(C)(=O)Nc1c(C)cccc1C (configuration not stated) | inactive: 1.79%
CN1CCCCC1COC(=O)C1(O)c2ccccc2CCc2ccccc21 (configuration not stated) | inactive: 0.786%
O=P1(Nc2ncccn2)COc2ccccc2OC1 | inactive: -4.48%
Cc1ccc(OCC(=O)OC2CN3CCC2CC3)cc1 (configuration not stated) | inactive: 13.8%
O=[As](O)(c1cccs1)c1cccs1 | inactive: -0.236%
O=P1(Nc2ccc(Br)cn2)COc2ccccc2OC1 | inactive: 1.42%

Compound | activity change, negative = inhibition
NS(=O)(=O)c1cccc(NC(=O)COC(=O)C(O)(c2ccccc2)c2ccccc2)c1 | inactive: 19.2%
CCCOc1ccc(NP(C)(=O)Oc2ccc(Cl)cc2)cc1 (configuration not stated) | inactive: -5.75%
Nc1cccc([As](=O)(O)c2ccccc2)c1 | inactive: -15.4%
CP(=O)(Nc1ccc(SC(F)(F)F)cc1)Oc1ccccc1 (configuration not stated) | inactive: 11.8%
CCOP(=O)(Nc1ccc(C)cn1)OCC | inactive: 11.7%
CN(CCCl)Cc1cc(Cl)c(NC2=NCCN2)c(Cl)c1 | inactive: 4.72%
O=P1(Nc2ccccn2)COc2ccccc2OC1 | inactive: -14.7%
CCC1=CC2Cc3nc4ccc(Cl)cc4c(N)c3C(C1)C2 (configuration not stated) | inactive: -13.2%
O=[N+]([O-])c1cc([N+](=O)[O-])c(-n2nnc3ccccc32)c([N+](=O)[O-])c1 | inactive: 21.5%
CCOP(=O)(NC(=NC(C)c1ccccc1)NC(C)c1ccccc1)OCC (configuration not stated) | inactive: -0.961%
Clc1n[nH]nc1-c1nn[nH][15n]1 | inactive: 0.656%
CC(C)(C)C(=O)NC(Sc1ncccn1)C(Cl)(Cl)Cl (configuration not stated) | inactive: 15.7%
O=[N+]([O-])c1cc([N+](=O)[O-])c(-c2cnn(-c3ccccc3)c2)c([N+](=O)[O-])c1 | inactive: 9.43%
CC1(CBr)Cn2c(nc3ccccc3c2=O)S1 (configuration not stated) | inactive: 7.48%
Cc1nc2ccc3ccccc3c2s1.O=[N+]([O-])c1cc([N+](=O)[O-])c(O)c([N+](=O)[O-])c1 | inactive: 0.386%
CC(C)/C=N\N=C(\N)N[N+](=O)[O-] | inactive: -10.5%
CN(C(=O)Cc1ccc(Cl)c(Cl)c1)[C@@H]1CCCC[C@H]1N1CCCC1 | inactive: 22.2%
O=[As](O)(O)c1cccnc1 | inactive: 12.9%
COc1cc(C(=O)NCC2(N3CCOCC3)CCCCC2)cc(Cl)c1OC(C)C | inactive: 1.68%
CS(=O)(=O)c1ccc(Cl)c(NC(=O)COC(=O)C(O)(c2ccccc2)c2ccccc2)c1 | inactive: -1.76%
O=C(OC1CN2CCC1CC2)c1ccc(Cl)cc1 (configuration not stated) | inactive: -17.1%
CCOC(=O)c1ccc(NP(C)(=O)Oc2cc(C)cc(C)c2)cc1 (configuration not stated) | inactive: 12%
Cc1cccc(OCC(=O)OC2CN3CCC2CC3)c1 (configuration not stated) | inactive: 1.7%

Compound | activity change, negative = inhibition
O=[As](O)(c1cccc(O)c1)c1cccc(O)c1 | inactive: -8.67%
Cc1cc(C)cc(OP(C)(=O)Nc2ccc(C)cc2C)c1 (configuration not stated) | inactive: 5.91%
Cc1ccc(C)c(NP(C)(=O)Oc2ccccc2)c1 (configuration not stated) | inactive: -15.7%
CCCOP(=S)(Nc1nc(N)cc(=O)[nH]1)OCCC | inactive: -11.6%
Cc1cc(C)cc(OP(C)(=O)Nc2ccccn2)c1 (configuration not stated) | inactive: 6.49%
CP(=O)(Nc1cccc(Br)c1)Oc1ccccc1 (configuration not stated) | inactive: -3.97%
Cc1ccc(NCCc2c([N+](=O)[O-])cc([N+](=O)[O-])cc2[N+](=O)[O-])cc1 | inactive: 0.0189%
Nc1cccc2c([As](=O)(O)O)cccc12 | inactive: -4%
CCOP(=O)(Nc1cccc2ccccc12)OCC | inactive: 5.88%
CCOP1(=S)c2c(C)nn(CCC#N)c2N=C(c2ccccc2F)N1C (configuration not stated) | inactive: -10.4%
O=P(Nc1nccs1)(Oc1ccccc1)Oc1ccccc1 | inactive: -4.64%
O=P(Nc1nccs1)(c1ccccc1)c1nc2ccccc2s1 (configuration not stated) | inactive: -10.7%
Nc1ccccc1[As](=O)(O)c1ccccc1 | inactive: 1%
O=C(O)COc1ccc([As](=O)(O)O)cc1[N+](=O)[O-] | inactive: 10.4%
NC(=O)Nc1ccc([As](=O)(O)O)cc1 | inactive: 1.26%
O=[N+]([O-])c1ccc2c(c1)nnn2O | inactive: -2.24%
CN(C)C(=O)c1cc([N+](=O)[O-])cc2c1-c1c(cc([N+](=O)[O-])cc1[N+](=O)[O-])C2=O | inactive: 11.1%
CC1=NCCc2c1[nH]c1ccccc21.O=[N+]([O-])c1cc([N+](=O)[O-])c(O)c([N+](=O)[O-])c1 | inactive: -4.12%
CN(C(=O)Cc1ccc(Cl)c(Cl)c1)[C@H]1CC[C@@]2(CCCO2)C[C@@H]1N1CCCC1 | inactive: -5.85%
N#CCCN(C(=O)COC(=O)C(O)(c1ccccc1)c1ccccc1)c1ccc(F)cc1 | inactive: -18.7%
CCOP1(=S)c2c(C)nn(CCC#N)c2N=C(c2ccc(F)cc2)N1C (configuration not stated) | inactive: 8.75%
CN(C(=O)Cc1ccccc1)[C@@H]1CC[C@]2(CCCO2)C[C@H]1N1CCCC1 | inactive: 0.0673%
CCNC(=S)/N=C(\N)N[N+](=O)[O-] | inactive: 7.4%
